Measured values: patent publication US20030119733A1, “Compositions and methods for inhibiting hepatocyte invasion by malarial sporozoites” (New York University, priority 1992, published 2003)

Tested on: P. berghei sporozoites
Conditions: 1 hour at 37° C., 50 μg/ml

dextran-sulfate
CSP reactions of treated sporozoites (crude measurement of viability): in the same proportion and with similar intensity as sporozoites incubated in medium alone
